The values below come from US5639873A, “Oligothionucleotides” (Centre National de la Recherche Scientifique (CNRS), priority 1992, dated 1997).

The subject of this data set is 3'-exonuclease snake venom phosphodiesterase. Type of data set: in vitro ADME. An excerpt:
Study of the substrate-type activities of hexamers 4'-SrU6, 4'-SrU6 -3'n-prOH compared with the substrate characteristics of the hexamers βrU6 and αrU6 in relation to various purified nucleases.
Snake venom phosphodiesterase (VSP) is a 3'-exonuclease-3' which liberates nucleotides 5'-phosphate after degrading the oligomer by its 3' end.
These four enzymes were obtained from Boehringer Mannheim.
Generally, one optical density unit at 260 nm of each hexamer is brought into contact with a certain concentration of the enzyme considered and is then diluted in a sufficient quantity for 1000 μl of enzymatic digestion buffer.
Various digestion buffers were used depending on the nature of the enzyme (Table 9).
The stock sample is divided into 10 fractions of 100 μl before being frozen at -18° C.
One aliquot fraction of 100 μl is collected and incubated in a dry oven thermostated at 37° C. for a time t and is then analyzed by analytical HPLC.
The study of the surface area of the signal corresponding to the hexamer makes it possible to measure a kinetics of degradation whose half-life period is calculated (Table 10).

With “4'-Sr-(U-U-U-U-U-U-3'-P-CH2 -CH2 -OH) [βSrU6 3'(CH2)3 OH]”, the Half-life period (Table 10, VSP 6 × 10^-4 units/ml, pH 9.4, 37° C.) is 4.17 h. Besides, under “propanol phosphodiester bond at the 3' end”, the “resistance to the 3'-exonuclease (in words)” value is listed as “greatly increased”.
